Target: TACE (Homo sapiens, UniProt P78536)
Test: Procedure for measuring TACE inhibition (fluorescent peptidyl substrate)
Settings: read-out: IC50 (nM) TACE

The chains behind the UniProt entries cited, without tags or fusion partners. Residues count along the entry.
UniProt P78536, 215-824 limits assumed: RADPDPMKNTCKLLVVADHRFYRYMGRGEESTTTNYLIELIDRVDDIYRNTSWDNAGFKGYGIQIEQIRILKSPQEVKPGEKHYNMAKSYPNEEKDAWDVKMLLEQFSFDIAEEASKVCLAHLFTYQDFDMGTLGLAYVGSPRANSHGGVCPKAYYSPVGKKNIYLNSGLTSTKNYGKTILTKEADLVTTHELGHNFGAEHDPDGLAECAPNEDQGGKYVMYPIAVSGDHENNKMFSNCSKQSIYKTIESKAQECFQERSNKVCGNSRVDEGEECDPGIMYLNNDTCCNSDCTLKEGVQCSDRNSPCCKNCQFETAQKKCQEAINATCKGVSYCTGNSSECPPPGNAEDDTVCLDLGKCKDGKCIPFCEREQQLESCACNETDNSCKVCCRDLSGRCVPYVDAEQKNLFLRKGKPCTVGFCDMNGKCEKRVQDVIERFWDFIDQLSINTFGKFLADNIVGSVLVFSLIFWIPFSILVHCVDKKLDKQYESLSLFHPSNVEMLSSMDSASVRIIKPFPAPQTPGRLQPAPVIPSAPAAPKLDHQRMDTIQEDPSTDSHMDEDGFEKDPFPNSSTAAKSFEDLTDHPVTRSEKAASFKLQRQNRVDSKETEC

- IC50: 10 nM
Structure (SMILES): CC#CCOc1ccc(S(=O)(=O)N2Cc3ccccc3N(C(=O)C3CC3)CC2C(=O)NO)cc1 (stereo not shown) [Example 58, 1-Cyclopropylcarbonyl-4-(4-but-ynyloxybenzenesulfonyl)-2,3,4,5-tetrahydro-1H-[1,4]benzodiazepine-3-carboxylic acid, hydorxyamide]

Reference: patent publication US6544984B1, “2,3,4,5-tetrahydro-1H-(1,4)benzodiazepine-3-hydroxamic acids” (American Cyanamid Company, priority 1999, dated 2003)
